## Ab-14 heavy chain CDR variants: yeast mating affinities

From the AlphaSeq antibody data of Li et al. 2023 (doi:10.1038/s41467-023-39022-2), copy in the FLAb collection.

Target: peptide PDVDLGDISGINAS, taken from heptad repeat 2 (HR2) of SARS-CoV-2 spike.

Parent: Ab-14, a human scFv built as VH, the linker GGGGSGGGGSGGGGS, VL. Only the CDRs of the heavy chain vary.
VH: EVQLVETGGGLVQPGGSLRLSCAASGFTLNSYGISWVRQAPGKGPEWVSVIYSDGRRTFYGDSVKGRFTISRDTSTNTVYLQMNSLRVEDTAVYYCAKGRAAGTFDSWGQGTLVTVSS
VL: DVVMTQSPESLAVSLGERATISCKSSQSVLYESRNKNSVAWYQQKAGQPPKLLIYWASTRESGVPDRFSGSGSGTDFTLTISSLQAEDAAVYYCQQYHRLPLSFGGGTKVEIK

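The parent was found by panning a naive human phage display library on the peptide. This is the validation round: designs drawn from the data on random variants, tested in the same kind of assay. Several design methods are mixed in this list. Affinity was read by AlphaSeq, a pooled yeast mating assay with surface-displayed partners. Mating (16 h, 30 °C) was followed by selection of diploids and sequencing of their barcodes. Scores were corrected for input abundance and mapped to Kd with protein pairs of known affinity run in the same pool. Each pool was mated in six replicate cultures.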

Variants are written as CDR1, CDR2 and CDR3 of the heavy chain (limits as in the source). Parent: GFTLNSYGIS, VIYSDGRRTFYGDSVK, GRAAGTFDS. The Kd shown is the geometric mean over detected replicates; a lower Kd is a better binder. A pair that was not seen in any replicate is written "not detected"; this usually means weak binding, but a binder can also be missed. In the paper, a design with two or fewer of six values counts as a poor binder. Nonspecific signal, from three strains lacking the peptide, appeared in 1% of pairings of all heavy chain designs, centred on 120 nM (5% of these signals below 7.0 nM); values are not corrected for it. Also given: how often the same scFv was detected with the empty control strains. A sequence measured in both rounds can read differently, since the two assays cover different ranges.

apparent Kd,seen in,signal with controls,CDR-H1,CDR-H2,CDR-H3
480 pM,6 of 6,0 of 18,GFDLEEYGIS,VIYADGSRTAYADSVK,GNVAGTFDL
6.2 nM,6 of 6,1 of 18,GFTLDSYGIS,VIYSDGRRTFYGDSVK,GRIAGTFDS
not detected,0 of 6,0 of 18,GFTLESYGIS,VIYSDGRRTFYGDSVK,GRAAGTFTS
410 pM,6 of 6,1 of 18,GFSLNSYGIS,VIYSDGRRTFYADSVK,GREAGTFDS
2.5 nM,6 of 6,0 of 18,GFTLNSYGIS,VIYSDGRRTFYSDSVK,GKVAGTFDT
3.6 nM,2 of 6,0 of 18,GFSLNSYGIS,VIYSDGRRTFYGDMVK,GRTAGTFDS
7.8 nM,5 of 6,1 of 18,GFTLNSYGIS,VIYSDGRRTFYGDSVK,GTAAGTFDS
31 nM,5 of 6,0 of 18,GFQLNSYGIS,VIYSDGRRTFYKDSVK,GQAAGTFDS
not detected,0 of 6,0 of 18,GFTLNSYGIS,VIYSDGRRTAYGDSVK,GRWADTFDS
not detected,0 of 6,0 of 18,GFDLNEYGIS,VIYADGRRTAYADSVK,GEIAGTFFF
1.8 nM,5 of 6,0 of 18,GFVLNSYGIS,VIYSDGRRTAYGDSVK,GRTAGTFDS
1.4 nM,6 of 6,1 of 18,GFSLNSYGIS,VIYSDGRRTFYGDSVK,GLTAGTFDS
690 pM,6 of 6,1 of 18,GFDLNEYGIS,VIYSDGRRTFYADSVK,GREAGTFDS
880 pM,6 of 6,0 of 18,GFELNSYGIS,VIYSDGRRTAYGDAVK,GRTAGTFDS
610 pM,6 of 6,0 of 18,GFDLDEYGIS,VIYADGRRTAYADSVK,GNNAGTFDT
not detected,0 of 6,0 of 18,GFSLNEYGIS,VIYSDGRRTFYRDSVK,GRTAGTFDS
180 nM,1 of 6,0 of 18,GFTANSYGIS,VIYSDGRRTFYGDSVK,GDAAGTPDS
not detected,0 of 6,0 of 18,GFTLNSYGIS,VIYSDGQRKFYGDSVK,GRAAGAFDV
550 pM,6 of 6,0 of 18,GFDLDEYGIS,VIYADGVRTAYTDSVK,GEVAGTFDL
310 pM,6 of 6,1 of 18,GFDLNEYGIS,VIYADGMRTAYIDDVK,GNVAGTFDV
not detected,0 of 6,0 of 18,GFTLNEYGIS,VIYSDGRRNFYGDSHK,GRAAVTSDQ
not detected,0 of 6,0 of 18,GFTLNSYGIS,VIYSDGRRTAYGPSVK,GRASVTFDS
not detected,0 of 6,0 of 18,GFDIDEMGIS,VIYADGKRTAYSNQVK,GNIYYDGMS
1.4 nM,5 of 6,0 of 18,GFDLNSYGIS,VIYSDGRRTFYGDAVK,GRQAGTFDS
1.2 nM,6 of 6,0 of 18,GFSLNSYGIS,VIYSDGRRTFYADSVK,GQTAGTFDN
290 pM,6 of 6,0 of 18,GFNLNEYGIS,VIYADGMRTFYADSVK,GETAGTFDV
9.1 nM,6 of 6,1 of 18,GFTLNQYGIS,VIYSDGQRTFYHDSVK,GRAAGTFDS
2.5 nM,6 of 6,0 of 18,GKTLNSYGIS,VIYADGRRTFYSDSVK,GRAAGTFDS
970 pM,6 of 6,0 of 18,GFSLNEYGIS,VIYSDGRRTFYHDSVK,GRMAGTFDS
not detected,0 of 6,0 of 18,GFTLNSYGIS,VIYSDGRRTEYGDQVK,GQAAGTFDS
not detected,0 of 6,0 of 18,GFTLNEYGIS,VIYSDGRRTFYGDSVK,GRAAVTFDF
not detected,0 of 6,1 of 18,GFDLNSYGIS,VIYSDGRRTFYGDSVK,GRAAGCFRS
240 pM,6 of 6,1 of 18,GFDLNEYGIS,VIYADGMRTFYADDVK,GEVAGTFDT
840 pM,6 of 6,0 of 18,GFDLNDYGIS,VIYSDGRRTFYGDSVK,GRAAGTFDV
1.0 nM,6 of 6,0 of 18,GFDLNSYGIS,VIYSDGRRTFYGDSVK,GKAAGTFDV
190 nM,2 of 6,0 of 18,KFTLNSYGIS,VIYSDGRRTFYRDSVK,GQTAGTFDS
not detected,0 of 6,0 of 18,GNDLQEYGIS,VIYADGLRVMYANSVK,GQLDVVVLV
640 pM,6 of 6,0 of 18,GFDLNEYGIS,VIYADGMRSVYADSVK,GENAGTFDV
not detected,0 of 6,0 of 18,GFSINEYGIS,VIYADGNRSAYIDAVK,GNSGSSFLE
33 nM,6 of 6,1 of 18,GFELNSYGIS,VIYSDGRRTFYLDSVK,GRQAGTFDS
not detected,0 of 6,0 of 18,GFTLNDYGIS,VIYSDPRRTFYGDHVK,GRAALSFES
not detected,0 of 6,0 of 18,GKDIEEYGVS,VIYADGKRIAYANKFK,GSNAGSFVD
48 nM,1 of 6,0 of 18,SFNLNSYGIS,VIYSDGRRTFYGDSVK,GRTAGTFDS
740 pM,6 of 6,0 of 18,GFDLNEYGIS,VIYADGRRTAYIDSVK,GENAGTFDI
70 nM,1 of 6,0 of 18,GFDLNEYGIS,VIYSDGRRTFYSDSVK,GRAAGFFDS
300 pM,6 of 6,0 of 18,GFDLNEYGIS,VIYADGQRTAYANDVK,GEVAGTFDV
1.2 nM,1 of 6,0 of 18,GFDLNEYGIS,VIYADGIRTFYADSVK,GNNAGTFIQ
9.9 nM,6 of 6,0 of 18,GFTLNSYGIS,VIYSDGRRTFYTDSVK,GMQAGTFDS
not detected,0 of 6,0 of 18,GFTLNDYGIS,VIYSDGRRTFYGDSVK,IRAAGTFDS
not detected,0 of 6,1 of 18,GFDLEELGIS,VIYADGMRTQYIDKVK,GIAGDSFLV
950 pM,6 of 6,0 of 18,GFELNEYGIS,VIYSDGRRTFYADDVK,GRTAGTFDS
1.2 nM,6 of 6,0 of 18,GFDLNEYGIS,VIYADGVRTFYTDSVK,GEVAGTFDS
12 nM,6 of 6,2 of 18,GFNLNSYGIS,VIYSDGRRTFYIDSVK,GKTAGTFDS
220 nM,1 of 6,0 of 18,GFTLSSYGIS,VIYSDGRRTFYTDSVK,GGAAGTFDP
not detected,0 of 6,0 of 18,GFTLNEYGIS,VIYSDGRRTFYGDSVK,CRAAVTFDQ
3.8 nM,6 of 6,0 of 18,GFDLNSYGIS,VIYSDGRRTFYGDSVK,GKAAGTFDD
760 pM,6 of 6,0 of 18,GFDLEEYGIS,VIYADGRRTAYADSVK,GNVAGTFDT
1.5 nM,2 of 6,0 of 18,GFELNSYGIS,VIYSDGRRTFYMDSVK,GRTAGTFDS
170 pM,6 of 6,0 of 18,GFDLESYGIS,VIYADGRRTFYADKVK,GKNAGTFDI
not detected,0 of 6,0 of 18,GRDLDEYGIS,VIYADGVRQAYIDSVK,GNWSGTMMY
250 pM,6 of 6,0 of 18,GFDLNEYGIS,VIYADGKRTFYADSVK,GTNAGTFDV
520 pM,6 of 6,0 of 18,GFDLNEYGIS,VIYADGMRKAYADDVK,GEVAGTFDV
1.4 nM,6 of 6,0 of 18,GFTLNSYGIS,VIYADGRRTFYGDSVK,GQVAGTFDS
150 nM,2 of 6,0 of 18,GFSLNSYGIS,VIYSDGRRTFYGDSVK,GQTAGTFDL
2.5 nM,6 of 6,0 of 18,GFSLNNYGIS,VIYSDGRRTFYGDSVK,GRNAGTFDT

Repeated from above, the 6 best binders with a signal in all replicates:

CDR-H1,CDR-H2,CDR-H3,apparent Kd,seen in,signal with controls
GFDLESYGIS,VIYADGRRTFYADKVK,GKNAGTFDI,170 pM,6 of 6,0 of 18
GFDLNEYGIS,VIYADGMRTFYADDVK,GEVAGTFDT,240 pM,6 of 6,1 of 18
GFDLNEYGIS,VIYADGKRTFYADSVK,GTNAGTFDV,250 pM,6 of 6,0 of 18
GFNLNEYGIS,VIYADGMRTFYADSVK,GETAGTFDV,290 pM,6 of 6,0 of 18
GFDLNEYGIS,VIYADGQRTAYANDVK,GEVAGTFDV,300 pM,6 of 6,0 of 18
GFDLNEYGIS,VIYADGMRTAYIDDVK,GNVAGTFDV,310 pM,6 of 6,1 of 18